Data as given in patent US20250009779A1 (priority 2021, published 2025).

System: pDCs
Type: cell-based, human

For `O.O=C([O-])CCC(=O)C(=O)[O-].[Na+].[Na+]` [α-KG, α-ketoglutaric acid disodium salt hydrate], the “IFNA expression by TLR9-activated pDCs undergoing ER stress” value was “rescued”.
